The source of these data is ChEMBL document CHEMBL4312008, “6-Methyluracil derivatives as peripheral site ligand-hydroxamic acid conjugates: Reactivation for paraoxon-inhibited acetylcholinesterase” (2020).

The chains behind the UniProt entries cited, without tags or fusion partners. Where a name states a change or a piece, a line headed by the entry shows the natural chain unless it says otherwise.
UniProt P06276, whole entry, looked up: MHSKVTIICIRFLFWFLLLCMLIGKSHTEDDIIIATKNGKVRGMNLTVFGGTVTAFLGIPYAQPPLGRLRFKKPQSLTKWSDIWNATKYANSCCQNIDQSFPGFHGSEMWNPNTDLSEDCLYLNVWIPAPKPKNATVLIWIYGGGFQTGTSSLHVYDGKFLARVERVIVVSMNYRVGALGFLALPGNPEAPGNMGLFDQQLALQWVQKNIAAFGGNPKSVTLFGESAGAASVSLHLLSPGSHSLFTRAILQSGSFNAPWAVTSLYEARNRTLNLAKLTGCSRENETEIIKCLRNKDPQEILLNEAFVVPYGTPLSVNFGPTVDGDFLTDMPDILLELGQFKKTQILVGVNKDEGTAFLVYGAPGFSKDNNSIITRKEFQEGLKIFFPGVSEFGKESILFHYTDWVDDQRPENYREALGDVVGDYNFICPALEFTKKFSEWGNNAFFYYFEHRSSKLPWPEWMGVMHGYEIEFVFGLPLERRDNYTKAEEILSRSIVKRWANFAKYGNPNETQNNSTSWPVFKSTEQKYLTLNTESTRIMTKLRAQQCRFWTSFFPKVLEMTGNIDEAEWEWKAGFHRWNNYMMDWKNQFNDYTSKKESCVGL
UniProt P22303: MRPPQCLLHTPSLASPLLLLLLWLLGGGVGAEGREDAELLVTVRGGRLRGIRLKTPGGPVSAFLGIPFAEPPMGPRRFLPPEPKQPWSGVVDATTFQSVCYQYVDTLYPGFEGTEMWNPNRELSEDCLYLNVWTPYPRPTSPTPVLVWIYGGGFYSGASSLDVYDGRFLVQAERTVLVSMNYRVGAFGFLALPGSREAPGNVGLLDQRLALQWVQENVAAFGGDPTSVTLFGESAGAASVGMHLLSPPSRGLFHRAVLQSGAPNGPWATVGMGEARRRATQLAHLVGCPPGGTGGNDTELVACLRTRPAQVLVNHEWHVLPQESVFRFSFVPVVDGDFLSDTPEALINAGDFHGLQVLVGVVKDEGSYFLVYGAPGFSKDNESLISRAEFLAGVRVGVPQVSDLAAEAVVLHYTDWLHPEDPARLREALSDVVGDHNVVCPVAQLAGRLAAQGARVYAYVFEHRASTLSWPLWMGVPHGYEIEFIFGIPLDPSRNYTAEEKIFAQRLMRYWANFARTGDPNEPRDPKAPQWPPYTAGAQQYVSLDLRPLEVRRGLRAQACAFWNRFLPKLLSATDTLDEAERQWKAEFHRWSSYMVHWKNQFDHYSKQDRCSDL

In experiment [1] the target is Cholinesterase (Homo sapiens) (UniProt P06276). The experiment in a line: Reactivation of POX-inhibited BChE in human plasma at 8 mM using BTC as substrate incubated for 60 mins followed by substrate addition by Ellman's method based spectrophotometry relative to control. The arrangement: scale not given: the % may be the effect or the level left. (In general: Ellman's reagent forms a yellow product with free thiols.)

Experiment [2] concerns the target Acetylcholinesterase (Homo sapiens) (UniProt P22303). The experiment in a line: Reactivation of POX-inhibited human recombinant AChE at 8 mM using ATC as substrate incubated for 60 mins followed by substrate addition by Ellman's method based spectrophotometry relative to control. The arrangement: scale not given: the % may be the effect or the level left.
For experiment [3], the target named is Cholinesterase (Homo sapiens) (UniProt P06276). The experiment in a line: Reactivation of POX-inhibited BChE in human plasma at 0.8 mM using BTC as substrate incubated for 60 mins followed by substrate addition by Ellman's method based spectrophotometry relative to control. The arrangement: scale not given: the % may be the effect or the level left.
In experiment [4] the target is Acetylcholinesterase (Homo sapiens) (UniProt P22303). Description: Reactivation of POX-inhibited human recombinant AChE at 0.8 mM using ATC as substrate incubated for 60 mins followed by substrate addition by Ellman's method based spectrophotometry relative to control. The arrangement: scale not given: the % may be the effect or the level left.
The next experiment has as its system Mus musculus. The experiment in a line: Protection against POX-induced mortality in CD1 mouse assessed as increase in animal survival rate at 300 mg/kg, iv administered 2 mins after challenge with POX at concentration of 2 X LD50.
In experiment [5] the test system is Rattus norvegicus. The experiment in a line: Protection against POX-induced mortality in Wistar rat assessed as increase in survival rate at 100 mg/kg, iv administered 10 mins before POX poisoning.
In experiment [6] the target is Acetylcholinesterase (Homo sapiens) (UniProt P22303). The experiment in a line: Reactivation of POX-inhibited human recombinant AChE assessed as reactivation rate constant using ATC as substrate incubated for 60 mins followed by substrate addition by Ellman's method based spectrophotometry.
Experiment [7] concerns the target Cholinesterase (Homo sapiens) (UniProt P06276). The experiment in a line: Reactivation of POX-inhibited BChE in human plasma at 10 mM using BTC as substrate incubated for 60 mins followed by substrate addition by Ellman's method based spectrophotometry relative to control. The arrangement: scale not given: the % may be the effect or the level left.
The test system of experiment [8] is Rattus norvegicus. The experiment in a line: Neuroprotection against POX-induced neuronal death in Wistar rat assessed as reduction in brain dentate gyrus damage at 100 mg/kg, iv administered 15 mins before POX poisoning and measured after 2 days in presence of 2-PAM by fluoro-jade-B staining based confocal laser scanning microscopy.
In experiment [9] the test system is Rattus norvegicus. Description: Neuroprotection against POX-induced memory impairment in Wistar rat assessed as decrease in quadrant percentage time at 100 mg/kg, iv administered 15 mins before POX poisoning respectively and measured after 2 days and on day 5 of training session by morris water maze spatial probe test.
The target in experiment [10] is Acetylcholinesterase (Homo sapiens) (UniProt P22303). The experiment in a line: Inhibition of human recombinant AChE at maximal concentration using ATC as substrate preincubated for 10 mins followed by substrate addition measured over 2 mins by Ellman's method based spectrophotometry.
For experiment [11] the target is unchanged. Description: Reactivation of POX-inhibited human recombinant AChE assessed as bimolecular rate constant using ATC as substrate incubated for 60 mins followed by substrate addition by Ellman's method based spectrophotometry.
Experiment [12] relates to Rattus norvegicus. Description: Neuroprotection against POX-induced memory impairment in Wistar rat assessed as total distance to platform at 100 mg/kg, iv compound administered 15 mins before POX poisoning and measured after 2 days and on day 2 to 4 of training session in presence of 2-PAM by morris water maze hidden platform ….
Experiment [13] concerns the target Cholinesterase (Homo sapiens) (UniProt P06276). The experiment in a line: Inhibition of BChE in human plasma at maximal concentration using BTC as substrate preincubated for 10 mins followed by substrate addition measured over 2 mins by Ellman's method based spectrophotometry.
For experiment [14], the system named is Rattus norvegicus. The experiment in a line: Neuroprotection against POX-induced memory impairment in Wistar rat assessed as decrease in number of platform area crossing at 100 mg/kg, iv administered 15 mins before POX poisoning and measured after 2 days and on day 5 of training session in presence of 2-PAM by morris water maze spatial probe ….
The test system of experiment [15] is Rattus norvegicus. Description: Neuroprotection against POX-induced neuronal death in Wistar rat assessed as reduction in brain dentate gyrus damage at 100 mg/kg, iv administered 10 mins before POX poisoning and observed after 2 days by fluoro-jade-B staining based confocal laser scanning microscopy.
Experiment [16] deals with Cholinesterase (Homo sapiens) (UniProt P06276). The experiment in a line: Reactivation of POX-inhibited BChE in human plasma at 100 mM using BTC as substrate incubated for 60 mins followed by substrate addition by Ellman's method based spectrophotometry relative to control. The arrangement: scale not given: the % may be the effect or the level left.
Experiment [17] addresses Acetylcholinesterase (Homo sapiens) (UniProt P22303). Description: Reactivation of POX-inhibited human recombinant AChE in at 10 mM using ATC as substrate incubated for 60 mins followed by substrate addition by Ellman's method based spectrophotometry relative to control. The arrangement: scale not given: the % may be the effect or the level left.
The target is the same in experiment [18]. Description: Reactivation of POX-inhibited human recombinant AChE at 2 mM using ATC as substrate incubated for 60 mins followed by substrate addition by Ellman's method based spectrophotometry relative to control. The arrangement: scale not given: the % may be the effect or the level left.
Experiment [19] has as its target Cholinesterase (Homo sapiens) (UniProt P06276). The experiment in a line: Reactivation of POX-inhibited BChE in human plasma at 2 mM using BTC as substrate incubated for 60 mins followed by substrate addition by Ellman's method based spectrophotometry relative to control. The arrangement: scale not given: the % may be the effect or the level left.
The subject of experiment [20] is Rattus norvegicus. Description: In vivo reactivation of POX-inhibited AChE in rat brain at 10 mg/kg, iv administered at 1 hr post POX poisoning and measured after 1 hr using acetylthiocholine iodide substrate in presence of BChE inhibitor iso-OMPA by Ellman's method.
The test system of experiment [21] is Rattus norvegicus. Description: Neuroprotection against POX-induced memory impairment in Wistar rat assessed as decrease in total distance to platform at 10 mg/kg, ip administered 15 mins before POX poisoning and measured after 2 days during 2 to 4 days of testing by morris water maze hidden platform test.
The test system of experiment [22] is Rattus norvegicus. The experiment in a line: Neuroprotection against POX-induced memory impairment in Wistar rat assessed as decrease in number of platform area crossing at 10 mg/kg, ip administered 15 mins before POX poisoning measured after 2 days and on day 5 of training session by morris water maze spatial probe test.
In experiment [23] the test system is Rattus norvegicus. The experiment in a line: Neuroprotection against POX-induced memory impairment in Wistar rat assessed as increase in escape latency at 10 mg/kg, ip administered 15 mins before POX poisoning measured after 2 days during 2 to 4 days of testing by morris water maze hidden platform test.
The subject of experiment [24] is Rattus norvegicus. Description: Neuroprotection against POX-induced neuronal death in Wistar rat assessed as reduction in brain dentate gyrus damage at 10 mg/kg, ip administered 15 mins before POX poisoning and observed after 2 days by fluoro-jade-B staining based confocal laser scanning microscopy.
Experiment [25] concerns Rattus norvegicus. Description: Neuroprotection against POX-induced memory impairment in Wistar rat assessed as decrease in quadrant percentage time at 10 mg/kg, ip administered 15 mins before POX poisoning measured after 2 days and on day 5 of training session by morris water maze spatial probe test.

The source made the active and inactive calls. No cut-off for these calls is given here.

In the case of `Cc1cc(=O)n(C)c(=O)n1CCCn1ccnc1/C=N/O`, the figures for the Activity in experiment [1] and in [2] were 11.4% and 5.4%, respectively.

Regarding `Cc1cc(=O)n(C)c(=O)n1CCCCn1ccnc1/C=N/O`, the Activity turned out to be 13.2% in [3] and 16.8% in [4].

As for `Cc1cc(=O)n(C)c(=O)n1CCCCCn1cnc(C(=O)NO)n1`, the result in the experiment on Mus musculus, in the experiment with Rattus norvegicus [5], in the experiment on Rattus norvegicus [8], in the experiment with Rattus norvegicus [9], in the experiment on Rattus norvegicus [12] and in the experiment on Rattus norvegicus [14] was Active. In addition, the result in the experiment with Rattus norvegicus [15] was Active. Also, in experiment [6], the Kr stood at 0.11 min⁻¹. This compound also showed an Activity in experiment [7] of 28.8%. The inhibition entry in experiment [10] and in experiment [13] was “inactive” each time. Also, the K in [11] is 0.333 M⁻¹ s⁻¹.

Turning to `Cc1cc(=O)n(C)c(=O)n1CCCCCCn1cnc(C(=O)NO)n1`, the Activity came out at 9.8% in [16] and 7.3% in experiment [17].

Regarding `Cc1cc(=O)n(C)c(=O)n1CCCCCCn1ccnc1/C=N/O`, the figures for the Activity in [18] and in [19] were 10.6% and 17%, respectively.

The compound `Cc1cc(=O)n(C)c(=O)n1CCCCn1cnc(C(=O)NO)n1` came in with an Activity in experiment [16] of 4.3%. In addition, the Kr in experiment [6] came to 0.049 min⁻¹. Also, the inhibition result in experiment [10] and in experiment [13] was “inactive” each time. Moreover, the K in experiment [11] turned out to be 0.0135 M⁻¹ s⁻¹.

On to `CCCCCn1ncnc1C(=O)NO`, for which the Activity in [17] came to 5.4%.

In the case of `C[n+]1ccccc1C=NO`, the outcome in the experiment with Rattus norvegicus [20] and in the experiment on Rattus norvegicus [24] was inactive. Further, the result with Rattus norvegicus [21], in the experiment on Rattus norvegicus [22], with Rattus norvegicus [23] and in the experiment on Rattus norvegicus [25] was Active. Also, the Kr in experiment [6] stood at 0.081 min⁻¹. Moreover, in [11], the K was determined as 9.63 M⁻¹ s⁻¹.
